This passage reports Kd results from publication doi:10.1101/2025.06.05.658000.

Bounds are passed on as bounds.

In this test the target is HLA-DR (DRA1*01:01 / DRB1*12:01), soluble knob-into-hole Fc heterodimer (human). The test can be described thus: ELISA.

Turning to RBD423-437, the Kd is greater than 10 µM. To RBD399-413 belongs greater than 10 µM; to RBD371-385, greater than 10 µM; to RBD523-537, greater than 10 µM. For RBD431-445 the value was greater than 10 µM.
